Experimental data taken from ChEMBL document CHEMBL1132324, “Structure-activity relationships in 1,4-benzodioxan-related compounds. 6. Role of the dioxane unit on selectivity for alpha(1)-adrenoreceptor subtypes” (J Med Chem, 1999).

System: Alpha-1B adrenergic receptor (Cavia porcellus)
Experiment: Antagonist affinity was expressed as apparent pKb at Alpha-1B adrenergic receptor on isolated Guinea pig spleen (Alpha-1B)

- pKb: 5.55
SMILES: COc1cccc(OC)c1OCCNC[C@H]1Oc2ccccc2O[C@@H]1c1ccccc1
